{
  "source": "ChEMBL document CHEMBL2321726",
  "about": "“Identification of selective inhibitors for human neuraminidase isoenzymes using C4,C7-modified 2-deoxy-2,3-didehydro-N-acetylneuraminic acid (DANA) analogues” (J Med Chem, 2013)",
  "target": "T1, Sialidase-4 (Homo sapiens, UniProt Q8WWR8)",
  "T1 sequence (Q8WWR8 whole entry)": "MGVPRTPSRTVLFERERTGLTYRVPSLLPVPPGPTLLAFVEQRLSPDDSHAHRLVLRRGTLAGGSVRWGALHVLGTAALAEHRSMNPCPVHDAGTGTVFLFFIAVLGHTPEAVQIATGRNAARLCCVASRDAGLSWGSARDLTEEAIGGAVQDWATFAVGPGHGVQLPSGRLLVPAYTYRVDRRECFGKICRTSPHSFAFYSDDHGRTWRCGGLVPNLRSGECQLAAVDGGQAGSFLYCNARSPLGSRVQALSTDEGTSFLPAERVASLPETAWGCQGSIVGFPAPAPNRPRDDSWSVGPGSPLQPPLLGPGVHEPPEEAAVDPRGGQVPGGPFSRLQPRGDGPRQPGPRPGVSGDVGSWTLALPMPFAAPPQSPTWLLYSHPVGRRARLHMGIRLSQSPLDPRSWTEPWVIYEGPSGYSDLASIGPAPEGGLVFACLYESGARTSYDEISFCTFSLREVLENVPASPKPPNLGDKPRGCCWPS",
  "test": "Inhibition of human neuraminidase 4 using 4MU-NANA as substrate after 30 mins by fluorescence assay",
  "method_in_brief": "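GST-fusion enzyme, assayed in 0.1 M sodium acetate pH 4.5. Inhibitor diluted 3-fold serially from 1 mM final, incubated 15 min at 37 °C with enzyme, then 4MU-NANA (50 μM final) 30 min at 37 °C. Stopped with 0.2 M sodium glycinate pH 10.7; fluorescence ex 365/em 445 nm. Four replicates; IC50 from nonlinear regression.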",
  "data": [
    {"compound": "CC(=O)N[C@H]1[C@H]([C@H](O)[C@H](O)CO)OC(C(=O)O)=C[C@@H]1O", "note": "[NEU5AC2EN]", "values": [
      {"measurement": "IC50", "result": 13, "unit": "µM"}
    ]}
  ]
}
